Results on 3 compounds are retold here after patent publication US20180015075A1, “METHODS AND COMPOSITIONS FOR TREATMENT OF VENOUS MALFORMATION” (Children's Hospital Medical Center, priority 2016, published 2018).

The subject of one assay is HUVEC (non-transfected). The experiment in a line: cells. The conditions noted are these: Homo sapiens, read-out: Average proliferation Inhibition rate (%) HUVEC.
A further assay has as its system HUVEC-TIE2-L914F. In words: cells. The note with it: Homo sapiens, read-out: Average proliferation Inhibition rate (%) L914F.
The next assay has as its system HUVEC-TIE2-WT. The experiment in a line: cells. The note with it: Homo sapiens, read-out: Average proliferation Inhibition rate (%) WT.
Assay [1] relates to HUVEC TIE2-L914F VM lesions. The experiment in a line: In vivo murine model of VM. The conditions noted are these: regression study, start day 9 (about 100 mm^2), 14 days; Ponatinib 30 mg/kg, rapamycin 2 mg/kg or both.

With `O=P1(N(CCCl)CCCl)NCCCO1` (stereo not drawn) [Cyclophosphamide], the inhibition at 20 µM with HUVEC (non-transfected) is -1.06%; with HUVEC-TIE2-L914F, 2.88%.

As to `c1cc(CN2CCCNCCNCCCNCC2)ccc1CN1CCCNCCNCCCNCC1` [Plerixafor], the inhibition at 20 µM is 3.15% in the assay with HUVEC (non-transfected), -2.43% with HUVEC-TIE2-WT and 5.99% in the assay on HUVEC-TIE2-L914F.

On to `CO[C@H]1C[C@@H]2CC[C@@H](C)[C@@](O)(O2)C(=O)C(=O)N2CCCC[C@H]2C(=O)O[C@H]([C@H](C)C[C@@H]2CC[C@@H](O)[C@H](OC)C2)CC(=O)[C@H](C)/C=C(\C)[C@@H](O)[C@@H](OC)C(=O)[C@H](C)C[C@H](C)/C=C/C=C/C=C/1C` [Sirolimus, Rapamycin], for which, in assay [1], the “VM lesions that regressed/shrunk (of 16)” value was 2/16.
